Literature values as cited in patent US20040063658A1, “Nucleoside derivatives for treating hepatitis C virus infection” (priority 2002, published 2004).

Details: in vivo

NC(=O)c1ncn([C@@H]2O[C@H](CO)[C@@H](O)[C@H]2O)n1 [Ribavirin, 1-β-D-ribofuranosyl-1H-1,2,-4-triazole-3-carboxamide]
teratogenicity / embryotoxicity: teratogenic and embryotoxic
